# Source: patent US11458114B2, “Methods and compositions for enhancing synthesis secretion and transport of collagen to increase wound strength” (NORTH CELL PHARMACEUTICALS, INC., priority 2020, dated 2022)
# System: UVB-induced wrinkle formation
# Assay: Topical alpha-ketoglutarate on UVB-induced wrinkle formation
smiles,measurement,value
O=C(O)CCC(=O)C(=O)O [alpha-ketoglutarate],skin irritation,irritating
